The values below come from US7550588B2, “Homotropanes with central nervous system activity” (The Research Foundation of State University of New York, priority 2006, dated 2009).

Sequences of proteins named here, by UniProt entry; tags and fusion partners are left off.
UniProt P31652, whole entry, looked up: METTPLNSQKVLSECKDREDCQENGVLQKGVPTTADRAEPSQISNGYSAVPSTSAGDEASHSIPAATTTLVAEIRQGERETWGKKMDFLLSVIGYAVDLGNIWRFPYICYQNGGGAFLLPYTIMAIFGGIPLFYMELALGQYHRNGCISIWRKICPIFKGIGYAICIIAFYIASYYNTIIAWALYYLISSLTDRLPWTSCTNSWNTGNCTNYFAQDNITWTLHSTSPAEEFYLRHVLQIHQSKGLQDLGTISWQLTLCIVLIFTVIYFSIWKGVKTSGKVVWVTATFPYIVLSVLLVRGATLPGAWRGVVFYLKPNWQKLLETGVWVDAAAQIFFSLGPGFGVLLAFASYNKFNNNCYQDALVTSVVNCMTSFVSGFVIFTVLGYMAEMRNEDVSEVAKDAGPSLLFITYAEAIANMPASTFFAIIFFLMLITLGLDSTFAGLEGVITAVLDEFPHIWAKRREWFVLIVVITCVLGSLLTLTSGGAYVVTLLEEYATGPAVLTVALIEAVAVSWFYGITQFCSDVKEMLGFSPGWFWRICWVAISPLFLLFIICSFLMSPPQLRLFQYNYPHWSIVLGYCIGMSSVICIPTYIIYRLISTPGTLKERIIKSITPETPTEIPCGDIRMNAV

In the experiment the target is serotonin transporter (SERT) (Rattus norvegicus, UniProt P31652). As to the kind of experiment: Displacement of [3H]paroxetine binding at 5-HT transport sites in rat frontal cortex membranes. In general terms: Loss of bound radioactivity is the signal in a displacement assay; it reports binding, not function.

SMILES strings stand for the structures.

As for `CCC(=O)C1C2CCC(CC1c1ccc(C)cc1)N(C)C2` (stereo not drawn) [compound 23, 6-Methyl-2α-propionyl-3β-(p-tolyl)-6-azabicyclo[3.2.2]nonane], the Ki (read-out: Binding (nM) SERT, [3H]paroxetine 0.4 nM, rat frontal cortex membranes, Cheng-Prusoff, mean ± S.E.M., tested as racemates) is > 2500 nM. For the same molecule, the “binding affinity at SERT (in words)” value (summary of Table 1) is recorded as “very low binding affinity”.
